Where “and” joins values, the source holds several entries; their conditions need not be identical. Equal values may be shown once. Each block holds one compound with its values, some of them ahead of it. Square brackets hold non-standard residues; d marks the D form. Peptide text beside a SMILES is read from it. pY = N[C@@H](Cc1ccc(OP(=O)(O)O)cc1)C(=O)O
Key:
SHP2^F285S [1] = biological target: T1, SHP2^F285S (Homo sapiens, UniProt Q06124, F285S); assay: Basal DiFMUP dephosphorylation kinetics, F285S; assay type: biochemical; conditions: substrate DiFMUP, basal (no peptide); 0.5 nM enzyme, Hepes pH 7.2
SHP2^F285S [2] = biological target: T1, SHP2^F285S; assay: Phosphopeptide activation of SHP2; assay type: biochemical

Compound: Cc1cc(=O)oc2c(F)c(OP(=O)(O)O)c(F)cc12 [DiFMUP, 6,8-Difluoro-4-Methylumbelliferyl Phosphate]
kcat/KM (SHP2^F285S [1]): 14000 M⁻¹ s⁻¹ and 14300 M⁻¹ s⁻¹

Compound: CC[C@H](C)[C@H](NC(=O)[C@H](Cc1ccc(OP(=O)(O)O)cc1)NC(=O)[C@H](CC(N)=O)NC(=O)[C@H](CC(C)C)NC(=O)[C@@H](N)CO)C(=O)N[C@@H](CC(=O)O)C(=O)N[C@@H](CC(C)C)C(=O)N[C@@H](CC(=O)O)C(=O)N[C@@H](CC(C)C)C(=O)N[C@H](C(=O)N[C@@H](CCCCN)C(=O)O)C(C)C [PY1172] (H-SLN[pY]IDLDLVK-OH)
EC50 (SHP2^F285S [2]): 2000 nM

sensitivity to bisphosphorylated peptide (SHP2^F285S [2]; relative to SHP2^WT): intermediate
Compound: SLNY(p)IDLDLVK-dPEG8-LSTY(p)ASINFQK [PY1172-PEG-PY1222]
